Molecular target: Transient receptor potential cation channel subfamily V member 1 (Homo sapiens, UniProt Q8NER1)
Assay: Antagonist activity at human TRPV1 expressed in human 1321N1 cells assessed as inhibition of capsaicin-induced calcium influx by FLIPR assay
Format: functional, cell-based

By UniProt entry, the sequences of proteins in these tests, tags left out.
UniProt Q8NER1, whole entry: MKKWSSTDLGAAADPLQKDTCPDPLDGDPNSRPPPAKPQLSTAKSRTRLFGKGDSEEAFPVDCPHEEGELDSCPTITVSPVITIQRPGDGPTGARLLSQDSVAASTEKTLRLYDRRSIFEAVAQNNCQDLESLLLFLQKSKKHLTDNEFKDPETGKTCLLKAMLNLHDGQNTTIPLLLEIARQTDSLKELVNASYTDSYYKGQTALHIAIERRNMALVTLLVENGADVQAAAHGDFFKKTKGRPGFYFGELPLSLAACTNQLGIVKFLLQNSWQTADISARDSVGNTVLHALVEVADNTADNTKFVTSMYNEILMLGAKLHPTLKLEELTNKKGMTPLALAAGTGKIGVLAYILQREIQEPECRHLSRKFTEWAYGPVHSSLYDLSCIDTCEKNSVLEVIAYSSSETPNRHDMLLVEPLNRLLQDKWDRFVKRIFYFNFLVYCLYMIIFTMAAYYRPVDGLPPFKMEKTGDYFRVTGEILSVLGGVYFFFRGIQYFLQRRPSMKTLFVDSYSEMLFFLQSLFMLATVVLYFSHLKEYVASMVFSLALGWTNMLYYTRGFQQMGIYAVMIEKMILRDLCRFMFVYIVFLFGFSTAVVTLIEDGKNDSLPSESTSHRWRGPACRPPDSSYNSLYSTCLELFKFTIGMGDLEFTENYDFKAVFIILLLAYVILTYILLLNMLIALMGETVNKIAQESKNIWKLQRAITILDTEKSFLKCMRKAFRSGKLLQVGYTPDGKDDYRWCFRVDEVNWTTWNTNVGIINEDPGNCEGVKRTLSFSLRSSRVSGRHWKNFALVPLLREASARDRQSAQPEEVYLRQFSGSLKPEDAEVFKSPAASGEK

O=C(Nc1ccc2cccnc2c1)c1ccc(-c2ccccc2)nc1
pKb: 8.7

Reference: ChEMBL document CHEMBL1142448, “Design and synthesis of 6-phenylnicotinamide derivatives as antagonists of TRPV1” (Bioorg Med Chem Lett, 2008)
